Earlier results as cited in patent publication US6114391A, “α-amino acid amides, preparation thereof and the therapeutical use thereof” (priority 1996, dated 2000).

Settings: literature data, in comparison with the present investigation; cited from earlier work

Question: Which “therapeutic index (in words)” value does the source give for `CCCC(CCC)C(=O)[O-].[Na+]` [sodium valproate] here?
Answer: smaller therapeutic indexes
